{"source": "patent US20210106674A1", "about": "“Gene Therapy For Mesothelioma” (The Trustees of the University of Pennsylvania, priority 2019, published 2021)", "system": "IFN-α2b", "experimental": "Enzyme-linked immunosorbent assays (ELISAs) were used to measure IFN-α2b levels (PBL Biomedical Labs; Piscataway, N.J.), as well as serum mesothelin-related protein (SMRP) levels (Fujirebio, Inc., Malvern, Pa.). Neutralizing adenovirus antibody titers (Nabs) were assessed as previously described (5). To detect induced humoral responses against tumor antigens, we performed immunoblotting against purified mesothelin and extracts from allogeneic mesothelioma cell lines using pre- and post-treatment serum as previously described (4-6). See Supplemental Methods for details.", "key": {"[1]": {"details": "Day 2 after vector infusion, patients with detectable levels (n=21)"}}, "data": [{"substance": "nadofaragene firadenovec [Ad.IFN]", "values": [{"measurement": "patients with detectable levels of serum IFN", "setting": "Day 2 after vector infusion", "value": 21, "unit": "n"}, {"measurement": "detectable levels of serum IFN", "setting": "[1]", "value": "15 to 1608", "unit": "pg/mL"}, {"measurement": "serum IFN, median value", "setting": "[1]", "value": 470, "unit": "pg/mL"}, {"measurement": "pleural levels of IFNα", "setting": "after initial dosing, compared with serum", "value": "much higher than seen in the serum"}]}]}
